## Ab-14 heavy chain CDR variants: yeast mating affinities

Source: Engelhart et al. 2022 (doi:10.1038/s41597-022-01779-4), MIT Lincoln Laboratory and A-Alpha Bio; data file from the FLAb repository.

Target peptide (SARS-CoV-2 spike, HR2 region): PDVDLGDISGINAS

Ab-14 is the parent antibody, in scFv form: VH, then a (GGGGS)3 linker, then VL. The light chain is unchanged in all variants.
VH: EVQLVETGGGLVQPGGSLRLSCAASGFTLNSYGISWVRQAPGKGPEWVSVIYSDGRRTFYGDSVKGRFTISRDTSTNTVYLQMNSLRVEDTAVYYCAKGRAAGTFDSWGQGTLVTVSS
VL: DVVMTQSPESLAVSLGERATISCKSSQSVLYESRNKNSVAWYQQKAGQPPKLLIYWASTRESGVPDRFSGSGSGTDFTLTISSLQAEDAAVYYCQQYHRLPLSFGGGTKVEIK

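The parent was found by panning a naive human phage display library on the peptide. In library AAYL49, one, two or three CDR residues were substituted; doubles and triples were drawn at random. The scFvs were displayed on barcoded MATa yeast, the peptide on MATalpha yeast. After mating in shaken culture at 30 °C for 16 h, diploids were selected and their barcode pairs sequenced. Scores were corrected for input abundance and mapped to Kd with protein pairs of known affinity run in the same pool. There are three technical replicates.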

Variants are written as CDR1, CDR2 and CDR3 of the heavy chain (limits as in the source). Parent: GFTLNSYGIS, VIYSDGRRTFYGDSVK, GRAAGTFDS.
Values are log10 of the apparent Kd in nM; lower means stronger binding.
Where no diploid with the target was found in that replicate, the entry reads "ND": below detection, most likely a poor binder, though not proof of it.
For reference, the parent read 0.65 as the reference entry and 4.11 (one replicate of three) as a member of this library.
Background: pairings of library AAYL49 with three empty control strains gave a value in 15% of cases (median 4.06, 5th percentile 2.83). Values in that range, when seen in few replicates, are hard to tell from nonspecific mating. For each scFv, signals with the empty controls are counted beside the result, with their mean in brackets.

CDR-H1,CDR-H2,CDR-H3,log10 Kd (nM) by replicate,empty controls
GPTLNSYGIS,VIRSDGRRTFYGDSVK,GRAAGTFMS,2.60 ND ND,1 of 9 (4.95)
GFTLNSYGIL,VIASDGRRTFYGDSVK,GRAAGLFDS,4.37 5.30 5.17,4 of 9 (4.55)
GFTLNSYTIS,VIYSDGRRTFDGDGVK,GRAAGTFDS,ND ND ND,0 of 9
GNTLNSYGIS,VIYSDGRRTFAGDSVK,GRAAGTFLS,ND ND ND,1 of 9 (3.73)
GKTLNSYNIS,VIYSDGRRTFYGVSVK,GRAAGTFDS,ND ND ND,0 of 9
GFTLNSYGIS,VIYSDGARDFYGDSVK,GRAAGTFQS,5.27 ND 3.73,2 of 9 (3.82)
VFTLNSYGIS,VIYSDGSRTFYGISVK,GRAAGTFDS,ND 5.03 ND,2 of 9 (4.61)
GFTLNEYGIV,VIYSDDRRTFYGDSVK,GRAAGTFDS,4.17 ND ND,0 of 9
GFTLNSYTIS,VIYSDGRRTFYGDADK,GRAAGTFDS,ND ND 5.12,1 of 9 (5.28)
GFTVNSYGIS,VIYSDGRRTFYGDSVM,GRACGTFDS,5.35 ND ND,1 of 9 (4.88)
GFTLNSYGIS,VIPSDGRWTFYGDSVK,GRAAGTFDY,5.00 ND ND,3 of 9 (3.99)
GFTLNSGGIS,EIYSDGRRTRYGDSVK,GRAAGTFDS,ND ND ND,0 of 9
GFTLNSYGIS,VIYSDGRRFFYGDSVW,GRAKGTFDS,3.72 4.16 ND,2 of 9 (3.56)
GFTLNSYGIS,VIYSDGRRTFYGMSVK,GTAAGTFSS,ND ND ND,0 of 9
GFTLNSYGRS,VIFSDGRRTFYGDSVK,GRAEGTFDS,3.21 4.80 3.11,2 of 9 (4.05)
GFTLIFYGIS,VIYSDGRRTFYGDSVM,GRAAGTFDS,ND ND ND,1 of 9 (3.12)
GSTLNSYGIW,VIYSDGRRTFYVDSVK,GRAAGTFDS,ND ND ND,0 of 9
GFTLSSYGIS,YLYSDGRRTFYGDSVK,GRAAGTFDS,ND ND ND,0 of 9
GFPLNSYGIP,VIYSDGRRTFIGDSVK,GRAAGTFDS,ND ND ND,1 of 9 (3.92)
GFLVNSYGIS,VIYSDGRRTFYGDSVK,GRAAGTFDW,3.00 3.05 3.03,0 of 9
GFTLNSYAIS,GIYSDGRRTFWGDSVK,GRAAGTFDS,ND ND ND,1 of 9 (3.12)
GFTANSAGIS,VIKSDGRRTFYGDSVK,GRAAGTFDS,ND ND 4.50,1 of 9 (5.11)
GFTLNSYGIS,VIYSDGRRTRYGDSVK,GRYAMTFDS,ND ND ND,0 of 9
GETLNSYGIS,VIYSDGRRTFYCDSVK,GRAAGTFDS,ND 4.40 ND,0 of 9
GFTLNSYGIM,VIYGDGRRTFYGDSVK,GRAAQTFDS,ND ND ND,0 of 9
GFTLNSYGIS,VIYFDGRRTFYEDSVK,GRAVGTFDS,4.93 3.19 3.30,1 of 9 (3.99)
GFTLISWGIS,VIYSDGRRTFYGDSVK,GRAAGTFDS,ND ND ND,0 of 9
RFTLNSIGIS,VIYSDGQRTFYGDSVK,GRAAGTFDS,ND ND 5.51,2 of 9 (4.15)
NFTENSKGIS,VIYSDGRRTFYGDSVK,GRAAGTFDS,ND 3.34 ND,1 of 9 (4.45)
GFTTNSYGIS,VIYSDGRRTFYGDSVK,GRAAGTFDS,3.78 ND 3.27,1 of 9 (2.66)
GFTLNSYGIS,VIYSDGRRGFYGRSVK,GRAIGTFDS,ND ND ND,1 of 9 (4.09)
GFTLNSYGIR,VIYLDGRRTFYDDSVK,GRAAGTFDS,ND 4.00 ND,3 of 9 (4.09)
GFTLNCIGIS,FIYSDGRRTFYGDSVK,GRAAGTFDS,ND ND ND,1 of 9 (3.95)
GFTWNSYGIS,VGYSDGRRTFYGDSVK,GRAAGTFDS,ND ND 3.03,0 of 9
GFTLNSYGLS,VIYSDGRRTFYGDSVK,GRAALTFDS,2.74 3.61 ND,1 of 9 (4.30)
GFTLNHYGIS,VIYSDGRRTFYGHSVK,GRFAGTFDS,2.12 1.87 2.10,0 of 9
GYALNSYGIS,VIYSDGRRCFYGDSVK,GRAAGTFDS,ND ND 4.12,2 of 9 (3.63)
GFTLNSYGIS,VIYSDGRRTFYGDSVK,GRAGGTFDS,1.37 1.47 1.44,1 of 9 (3.33)
GDTLNSYGIG,VIYSDGRRTFYGDWVK,GRAAGTFDS,ND 4.01 ND,6 of 9 (4.34)

Excerpt, the final 3 entries:

| CDR-H1 | CDR-H2 | CDR-H3 | log10 Kd (nM) by replicate | empty controls |
|---|---|---|---|---|
| GYALNSYGIS | VIYSDGRRCFYGDSVK | GRAAGTFDS | ND ND 4.12 | 2 of 9 (3.63) |
| GFTLNSYGIS | VIYSDGRRTFYGDSVK | GRAGGTFDS | 1.37 1.47 1.44 | 1 of 9 (3.33) |
| GDTLNSYGIG | VIYSDGRRTFYGDWVK | GRAAGTFDS | ND 4.01 ND | 6 of 9 (4.34) |